Literature values in paper PMC5881571 (Alzheimer's & dementia : the journal of the Alzheimer's …, 2017).

Biological target: soluble Aβ40

In the case of “bapineuzumab: a humanized monoclonal Aβ antibody”, the Kd is given as 89 nM.
